Experimental data from patent publication US20190233825A1, “METHODS OF MODULATING CYTOSOLIC DNA SURVEILLANCE MOLECULES” (BAYER ANIMAL HEALTH GMBH, priority 2015, published 2019).

Test system: STING
Experiment: SEAP reporter assay in B16-Blue ISG-KO-STING cells
Format: cell-based, murine
Conditions: FIG. 26

B1: IFN-β: interferon-β, cytokine used to validate the cell lines (protein, UniProt P01574 22-187, looked up)
Interferon beta: MSYNLLGFLQRSSNFQCQKLLWQLNGRLEYCLKDRMNFDIPEEIKQLQQFQKEDAALTIYEMLQNIFAIFRQDSSSTGWNETIVENLLANVYHQINHLKTVLEEKLEKEDFTRGKLMSSLHLKRYYGRILHYLKAKEYSHCAWTIVRVEILRNFYFINRLTGYLRN
  signal (interferon-response element readout): not be affected by deletion of the STING gene
